SMILES strings stand for the structures.

Chains of the proteins cited; added tags and fusions are not shown. Lines headed by an entry give the natural chain unless they say otherwise; changes in a name come on top. Residues count along the entry.
UniProt P18508, 39-466: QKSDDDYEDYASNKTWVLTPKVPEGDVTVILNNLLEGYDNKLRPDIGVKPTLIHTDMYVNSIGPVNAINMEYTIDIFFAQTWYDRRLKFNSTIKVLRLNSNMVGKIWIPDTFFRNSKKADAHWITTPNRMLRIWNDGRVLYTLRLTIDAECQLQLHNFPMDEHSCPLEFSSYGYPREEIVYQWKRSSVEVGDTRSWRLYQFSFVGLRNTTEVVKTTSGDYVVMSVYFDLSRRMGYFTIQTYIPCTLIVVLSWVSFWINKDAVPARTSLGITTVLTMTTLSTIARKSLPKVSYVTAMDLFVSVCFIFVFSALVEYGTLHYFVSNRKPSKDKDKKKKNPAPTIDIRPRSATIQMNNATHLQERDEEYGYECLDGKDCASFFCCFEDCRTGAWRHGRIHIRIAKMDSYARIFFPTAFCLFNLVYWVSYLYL
UniProt P62813, 28-455 R158C: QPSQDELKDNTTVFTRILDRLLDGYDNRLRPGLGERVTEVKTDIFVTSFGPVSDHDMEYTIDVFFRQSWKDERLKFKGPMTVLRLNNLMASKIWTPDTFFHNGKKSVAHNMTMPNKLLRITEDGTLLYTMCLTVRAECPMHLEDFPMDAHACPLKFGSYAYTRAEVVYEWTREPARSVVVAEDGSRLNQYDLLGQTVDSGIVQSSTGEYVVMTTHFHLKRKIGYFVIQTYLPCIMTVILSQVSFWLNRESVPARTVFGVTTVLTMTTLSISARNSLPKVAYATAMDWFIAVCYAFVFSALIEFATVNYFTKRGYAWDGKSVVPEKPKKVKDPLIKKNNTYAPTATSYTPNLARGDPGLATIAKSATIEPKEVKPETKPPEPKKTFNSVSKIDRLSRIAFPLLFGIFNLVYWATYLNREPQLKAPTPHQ
UniProt P63138, 25-474 limits assumed: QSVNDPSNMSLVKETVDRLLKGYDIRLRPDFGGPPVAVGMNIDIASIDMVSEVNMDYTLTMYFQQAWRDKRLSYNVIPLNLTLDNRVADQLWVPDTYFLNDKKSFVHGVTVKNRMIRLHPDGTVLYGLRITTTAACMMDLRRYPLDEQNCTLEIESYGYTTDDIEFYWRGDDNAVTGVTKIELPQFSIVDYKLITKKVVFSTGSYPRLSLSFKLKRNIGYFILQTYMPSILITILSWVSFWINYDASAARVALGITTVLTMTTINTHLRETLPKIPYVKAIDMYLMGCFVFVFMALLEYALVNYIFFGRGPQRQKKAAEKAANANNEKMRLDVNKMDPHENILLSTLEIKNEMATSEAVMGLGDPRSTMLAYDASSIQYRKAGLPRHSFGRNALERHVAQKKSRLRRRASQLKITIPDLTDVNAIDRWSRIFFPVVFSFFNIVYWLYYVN

The experiment concerns the target α1R131Cβ2γ2 GABAR (Rattus norvegicus, UniProt P18508+P62813+P63138, R158C). Put plainly: Rate of MTS modification of introduced cysteine. The note with it: relative to control (MTS alone); 10μM flurazepam, DMCM, low non-activating PB.
Take `CCc1c(C(=O)OC)ncc2[nH]c3cc(OC)c(OC)cc3c12` [DMCM, 3-carbomethoxy-4-ethyl-6,7-dimethoxy-β-carboline]: the “fold faster MTSEA-biotin reaction at α1R131C” value worked out at 1.9 fold.

For the compound `CCN(CC)CCN1C(=O)CN=C(c2ccccc2F)c2cc(Cl)ccc21` [Flurazepam], the “fold faster MTSEA-biotin reaction at α1R131C” value is listed as 2.1 fold.

In the case of `CCCC(C)C1(CC)C(=O)NC(=O)NC1=O` (stereo not drawn) [Pentobarbital, pentobarbital], the “fold faster MTSEA-biotin reaction at α1R131C” value is “had no effect”.

The values above are taken from article PMC3026633 (Neuropharmacology, 2010).
